# Earlier results, collected in patent US7371365B2, “Methods for detecting parenchymal plaques in vivo” (Mayo Foundation for Medical Education and Research, priority 2000, dated 2008).
# Tested on: BBB
# Details: in vivo; cited from earlier work
substance,measurement,value
albumin: protein thought to cross the BBB by passive diffusion; literature comparison,PS value in rat cortex,1.5e-07 mL/g/s
